# scFv variants of Ab-91 (heavy chain) against a SARS-CoV-2 spike peptide

Target peptide (SARS-CoV-2 spike, HR2 region): PDVDLGDISGINAS

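The parent was found by panning a naive human phage display library on the peptide. AAYL51 was designed without a model: most single CDR substitutions and a random sample of double and triple ones. AlphaSeq pools MATa yeast showing the antibodies with MATalpha yeast showing the peptide. Binding brings cells together so that they mate, and sequencing counts the barcode pairs among the diploids. Read counts were normalised to the haploid input and turned into Kd by a linear fit to BCL2-family pairs of known affinity, for each replicate. Each pool was mated in three replicate cultures.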

The variants keep the light chain, the linker and the frameworks of Ab-91 (scFv order VL, a (GGGGS)3 linker, VH).
VL: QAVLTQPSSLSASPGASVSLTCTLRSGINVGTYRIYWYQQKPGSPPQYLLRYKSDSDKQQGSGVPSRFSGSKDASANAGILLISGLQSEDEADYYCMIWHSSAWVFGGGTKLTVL
VH: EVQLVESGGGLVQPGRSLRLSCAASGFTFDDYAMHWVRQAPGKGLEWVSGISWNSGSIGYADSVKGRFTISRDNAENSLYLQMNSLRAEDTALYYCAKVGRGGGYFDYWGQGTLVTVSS

Changes read parent residue, position, new residue, counted from the first residue of the VH shown.
All variants listed here change M34 of the VH, counted from its first residue.
Values are apparent Kd, the geometric mean of the replicates that gave a signal; lower means stronger binding.
"nd" marks a missing value. The strain was present, yet no cells mated with the target were sequenced in any replicate, which points to weak or no binding.

changes	Kd (apparent)	seen in
M34P G103S G104L	300 µM	2/3
M34N S55Y G59I	nd	0/3
D31C M34D A61D	nd	0/3
M34K S57H Y105F	190 µM	3/3
M34P	nd	0/3
M34C R101P	nd	0/3
G26Q M34W A61Q	19 µM	1/3
G26T M34P V64S	63 µM	3/3
F29L Y32R M34Y	nd	0/3
M34I G50H V99Q	27 µM	1/3
T28W M34V	50 µM	2/3
M34K S52I	15 µM	1/3
M34R Y105E D107P	nd	0/3
Y32W M34Q G104R	nd	0/3
M34K V64P G103S	150 µM	3/3
G26M M34C D62S	nd	0/3
G26S M34G G103T	nd	0/3
Y32V M34Q V64E	100 µM	2/3
A33H M34P G59K	nd	0/3
F27W M34G H35R	nd	0/3
M34F V64K D107L	nd	0/3
M34K N54M G103H	nd	0/3
Y32R M34D	7.0 µM	1/3
G26Y M34N G50E	4.3 µM	1/3
D31W M34W V99W	nd	0/3
M34T G59K G104S	500 µM	1/3
M34G I58H D62N	nd	0/3
M34N S52H Y108T	20 µM	3/3
D31K M34G S52F	93 µM	2/3
M34G I51P F106Q	14 µM	1/3
M34D H35W S52F	nd	0/3
M34N V99S D107Y	45 µM	1/3
M34N R101M G103K	92 µM	2/3
M34G N54Y V99H	nd	0/3
F27D M34I H35V	1.3 µM	2/3
M34V G100F R101L	2.9 µM	2/3
M34E S63Q G102N	nd	0/3
F29T M34T Y105K	90 µM	2/3
F29Q M34N G50M	nd	0/3
M34Y A61V V64Y	nd	0/3
M34C A61E Y108R	150 µM	1/3
D30S M34C	nd	0/3
T28S M34Y Y108K	4.6 µM	2/3
T28P M34Q G50K	nd	0/3
M34G G50M R101S	nd	0/3
M34V D62E K65C	nd	0/3
M34S S55Y	6.8 µM	1/3
M34P R101D Y108P	39 µM	1/3
T28C M34I G104M	120 µM	3/3
M34P A61T V99R	110 µM	1/3
A33F M34P G104E	nd	0/3
M34P V64D V99A	nd	0/3
T28K M34Q D107H	nd	0/3

The first 7 variants above that were never detected:

{"changes": "M34N S55Y G59I", "Kd (apparent)": "nd", "seen in": "0/3"}
{"changes": "D31C M34D A61D", "Kd (apparent)": "nd", "seen in": "0/3"}
{"changes": "M34P", "Kd (apparent)": "nd", "seen in": "0/3"}
{"changes": "M34C R101P", "Kd (apparent)": "nd", "seen in": "0/3"}
{"changes": "F29L Y32R M34Y", "Kd (apparent)": "nd", "seen in": "0/3"}
{"changes": "M34R Y105E D107P", "Kd (apparent)": "nd", "seen in": "0/3"}
{"changes": "Y32W M34Q G104R", "Kd (apparent)": "nd", "seen in": "0/3"}

Background: pairings of library AAYL51 with three empty control strains gave a value in 21% of cases (median 34 µM, 5th percentile 1.8 µM). Values in that range, when seen in few replicates, are hard to tell from nonspecific mating.

From the AlphaSeq antibody data of Engelhart et al. 2022 (doi:10.1038/s41597-022-01779-4), copy in the FLAb collection.